Molecular target: Recombinant human FGFR1 (Homo sapiens, UniProt P11362)
Experiment: Transcreener Kinase Assay of FGFR1
Assay type: biochemical
Settings: read-out: FGFR1 (FP) IC50
Method: Transcreener Kinase Assay of FGFR1
Prepare Solution • Compounds were solved in DMSO and were diluted with assay buffer to 5 folds of final concentration keeping the DMSO concentration at 5%. Further dilution are needed to make final concentrations are at 1, 0.33, 0.11, 0.037, 0.012, 0.004, 0.0014, 0.0005 μM; (the final concentration of DMSO is 1%). • Enzyme/Substrate stock Preparation: Recombinant human FGFR1 and Poly E4Y are both diluted in assay buffer.
Enzymatic Reaction • In a 96-well plate, Add 5 μL of compound or control. (positive control: 5 μL of 5% DMSO; negative control: 5 μL of 500 mM EDTA) into desired wells; • Add 10 μL of Enzyme/Substrate stock into each well; • Add 10 μL of ATP Diluents to initiate the enzyme reaction and votex the plate immediately on a plate shaker; • For the wells to make standard curve, add 5 μL of 5% DMSO, 10 μL of assay buffer and 10 μL of ATP standard curve stock. • Incubate the plate for 45 min at 28[…] on a plate shaker in a low speed. […]
• [ADP] in Compound well represents the ADP concentration in compound well. • [ADP] in Positive control well represents the ADP concentration in 5% DMSO well • Conversion of mP value to ADP concentration is calculated based on the formula which determined by standard curve. And mP value is measured by following the instruction provided by BellBrook Labs. […] IC50: calculated using XL-Fit 2.0 software.

Protein sequences, listed by entry. Tags and fused reporters are not part of them. Residues count along the entry.
UniProt P11362, 22-822: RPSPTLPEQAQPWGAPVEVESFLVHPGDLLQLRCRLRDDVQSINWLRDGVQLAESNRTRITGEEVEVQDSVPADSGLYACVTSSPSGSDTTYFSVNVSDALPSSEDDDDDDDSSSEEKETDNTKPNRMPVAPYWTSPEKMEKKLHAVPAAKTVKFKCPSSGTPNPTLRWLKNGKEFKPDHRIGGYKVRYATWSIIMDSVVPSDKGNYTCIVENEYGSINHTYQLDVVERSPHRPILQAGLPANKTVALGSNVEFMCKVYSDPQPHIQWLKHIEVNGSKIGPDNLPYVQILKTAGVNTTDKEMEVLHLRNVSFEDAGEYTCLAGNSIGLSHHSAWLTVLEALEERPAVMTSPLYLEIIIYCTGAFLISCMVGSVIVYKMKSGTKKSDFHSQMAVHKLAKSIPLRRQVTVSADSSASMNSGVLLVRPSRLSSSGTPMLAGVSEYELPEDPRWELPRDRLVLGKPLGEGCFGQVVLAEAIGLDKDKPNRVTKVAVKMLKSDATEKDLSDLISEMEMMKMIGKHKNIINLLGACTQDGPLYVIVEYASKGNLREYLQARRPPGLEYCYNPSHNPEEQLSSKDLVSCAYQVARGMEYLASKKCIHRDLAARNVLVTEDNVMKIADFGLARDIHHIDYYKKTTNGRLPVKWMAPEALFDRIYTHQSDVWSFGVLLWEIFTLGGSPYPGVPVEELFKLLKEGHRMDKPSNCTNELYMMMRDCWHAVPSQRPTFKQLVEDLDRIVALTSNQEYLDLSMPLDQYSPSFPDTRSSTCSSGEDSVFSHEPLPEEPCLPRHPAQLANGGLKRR

CCS(=O)(=O)n1cc(Nc2ncc(CCc3cc(C(=O)NC)cc(OC)c3F)cn2)cn1 [Compound 140, 3-(2-(2-(1-(ethylsulfonyl)-1H-pyrazol-4-ylamino)pyrimidin-5-yl)ethyl)-4-fluoro-5-methoxy-N-methylbenzamide]
IC50: 0.038 µM

— patent US20160052926A1, “NOVEL PYRIMIDINE AND PYRIDINE COMPOUNDS AND USAGE THEREOF” (HUTCHISON MEDIPHARMA LIMITED, priority 2013, published 2016)
